From PubChem BioAssay AID485273 (Sanford-Burnham Center for Chemical Genomics, 2010)
Only a part is listed here, and it is no random draw. Activity calls are given as the source filed them. Rule as the data show it: active = inhibition above about 45% (passing the limit was not always enough); inconclusive = no clear call, values can overlap the other calls.

The chains behind the UniProt entries cited, without tags or fusion partners. Where a name states a change or a piece, a line headed by the entry shows the natural chain unless it says otherwise.
UniProt P61088: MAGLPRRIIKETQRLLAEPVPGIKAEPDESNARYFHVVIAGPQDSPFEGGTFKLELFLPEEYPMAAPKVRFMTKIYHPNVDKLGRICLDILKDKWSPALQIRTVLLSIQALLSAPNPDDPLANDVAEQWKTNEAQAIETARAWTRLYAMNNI

These compounds were tested against Ubiquitin-conjugating enzyme E2 N (Homo sapiens) (UniProt P61088) (assay: UBC13 polyubiquitin chain formation inhibitors, primary screen, biochemical, TR-FRET, uHTS (AID 485273)). Details: at 20 µM, stronger effect = higher value.

Row | Structure (SMILES) | inhibition
1 | C[C@H]1OP(=O)(Oc2ccccc2)C[C@@H]2O[C@@H]21 (stereo partly drawn) | inactive: 6.1%
2 | C[C@@H]1C=CCP(=O)(Oc2ccccc2)O1 (stereo partly drawn) | inactive: -6.1%
3 | CC(=O)c1ccc(N2CC2c2ccncc2)cc1 (stereo not drawn) | inactive: 1.8%
4 | CC(C)(C)C(=O)NC(Sc1ccccc1)C(Cl)(Cl)Cl (stereo not drawn) | inactive: 6.1%
5 | O=P1(Nc2nc3ccc(Cl)cc3s2)COc2ccccc2O1 (stereo not drawn) | inactive: -1%
6 | CCOc1ccc(C2=NCC(CBr)S2)cc1 (stereo not drawn) | inactive: 24.7%
7 | Oc1ccccc1CNc1ccccn1 | inactive: 5.4%
8 | O=C(NC(Sc1ccncn1)C(Cl)(Cl)Cl)c1ccccc1 (stereo not drawn) | inactive: 3%
9 | Cc1c2non([O-])c-2c(C)[n+](=O)[n+]1[O-] | inactive: 2.2%
10 | Nc1cc(N)c2nonc2c1[N+](=O)[O-] | inactive: -51.3%
11 | CC(C)CC(=O)NC(Sc1ccc(Cl)cc1)C(Cl)(Cl)Cl (stereo not drawn) | inactive: 4.8%
12 | CN1CCCC(OC(=O)C(c2ccccc2)c2ccccc2)C1 (stereo not drawn) | inactive: 6.7%
13 | Clc1ccc(Cl)c(NC2=NCC(CBr)S2)c1 (stereo not drawn) | inactive: 5.6%
14 | COc1ccccc1OP(=O)(Nc1ccc(C)cn1)Oc1ccccc1OC | inactive: 2.8%
15 | Cc1ccc(OP(=O)(Nc2nccs2)Oc2ccc(C)cc2)cc1 | inactive: 2.5%
16 | CN(C(=O)Cc1ccc(Cl)c(Cl)c1)[C@H]1CCCC[C@H]1N1CCCC1 | inactive: 1.1%
17 | Cc1ccc(N/C(=N/P(=O)(N2CCOCC2)N2CCOCC2)N2CCOCC2)cc1 | inactive: 7%
18 | NC(=O)c1cc([N+](=O)[O-])cc([N+](=O)[O-])c1N | inactive: -12.9%
19 | CCN(N=Nc1nonc1N)c1nonc1N | inactive: -3.7%
20 | O=[N+]([O-])c1cc([N+](=O)[O-])c(CCN2CCOCC2)c([N+](=O)[O-])c1 | inactive: -39.7%
21 | Cc1cc(SC(NC(=O)c2ccc(F)cc2)C(Cl)(Cl)Cl)ncn1 (stereo not drawn) | inactive: -8.6%
22 | CCOP(=O)(Nc1ccccc1)OCC | inactive: -4.5%

Row | Structure (SMILES) | inhibition
23 | CN(C(=O)Cc1ccc(Cl)c(Cl)c1)[C@H]1CCCC[C@@H]1N1CCCC1 | inactive: 10%
24 | Cc1ccc(NP(=O)(Oc2ccccc2F)Oc2ccccc2F)nc1 | inactive: 4.2%
25 | O=P(Nc1nc2ccc(Cl)cc2s1)(c1ccccc1)c1ccccc1 | inactive: -1.4%
26 | CC(=O)Nc1ccc([As](=O)(O)O)cc1 | inactive: -4.5%
27 | O=C(O)c1ccccc1[As](=O)(O)O | inactive: -11.5%
28 | O=[N+]([O-])c1cccc(NC2=NCC(CBr)S2)c1 (stereo not drawn) | inactive: 4.9%
29 | O=[N+]([O-])c1ncn(CCn2ncnc2[N+](=O)[O-])n1 | inactive: 3.8%
30 | CC(C)(C)C(=O)NC(Sc1ccncn1)C(Cl)(Cl)Cl (stereo not drawn) | inactive: -5.8%
31 | O=C(Nc1cc([As](=O)(O)O)ccc1O)c1ccccc1 | inactive: -8.2%
32 | CC1CCN(C(=O)Oc2c(Cl)cc(Cl)c3cccnc23)CC1 | inactive: 6.8%
33 | CC(C)=N/N=C(\N)N[N+](=O)[O-] | inactive: -0.1%
34 | CN(C)C(=O)OCCc1n(C)cc[n+]1C | inactive: 5.1%
35 | CCN(/C(=N/P(=O)(N1CCOCC1)N1CCOCC1)N1CCOCC1)c1ccc(OC)cc1 | inactive: -3.1%
36 | Nc1ccc([As](=O)(O)c2ccc(N)cc2)cc1 | inactive: -2.3%
37 | C[N+]1=C2C=CC=CC=C2SC12C([N+](=O)[O-])=CC([N+](=O)[O-])=C[C-]2[N+](=O)[O-] (stereo not drawn) | inactive: -56.7%
38 | Cc1ccc(NP(=O)(Oc2ccccc2)Oc2ccccc2)nc1 | inactive: 7%
39 | O=[N+]([O-])c1cc([N+](=O)[O-])c(CCNc2ccccc2)c([N+](=O)[O-])c1 | inactive: -55.6%
40 | CCc1nc2c(n1)c1c(non1O)c1c2no[n+]1[O-] | inactive: -12.3%
41 | CC(=O)N1C2C3N(C(C)=O)C1C1N(C(C)=O)C(C(N1C(C)=O)N3C(C)=O)N2C(C)=O | inactive: 7%
42 | O=[N+]([O-])c1cccc2n[nH]nc12 | inactive: -10.8%
43 | COc1ccc(C2=NCC(CBr)S2)cc1 (stereo not drawn) | inactive: -0.2%
